Binding of CDR-mutated scFvs to a peptide of the spike HR2 region

Data: MIT Lincoln Laboratory AlphaSeq set, Engelhart et al. 2022, doi:10.1038/s41597-022-01779-4, as distributed in FLAb.

Antigen: PDVDLGDISGINAS, a 14-residue peptide of the SARS-CoV-2 spike HR2 region.

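AAYL51 was designed without a model: most single CDR substitutions and a random sample of double and triple ones. AlphaSeq pools MATa yeast showing the antibodies with MATalpha yeast showing the peptide. Mating (16 h, 30 °C) was followed by selection of diploids and sequencing of their barcodes. The ratio of observed to expected reads was calibrated, replicate by replicate, on BCL2-family standards whose Kd was known from biolayer interferometry. There are three technical replicates.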

Parent: Ab-91, a human scFv built as VL, the linker GGGGSGGGGSGGGGS, VH. Only the CDRs of the heavy chain vary.
VL: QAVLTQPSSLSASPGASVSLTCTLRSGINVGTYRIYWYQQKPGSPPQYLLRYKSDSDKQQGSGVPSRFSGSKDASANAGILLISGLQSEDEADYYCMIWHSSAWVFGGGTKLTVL
VH: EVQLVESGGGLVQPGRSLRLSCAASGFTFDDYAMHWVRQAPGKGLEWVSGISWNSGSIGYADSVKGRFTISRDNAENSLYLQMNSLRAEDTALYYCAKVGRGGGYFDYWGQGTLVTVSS

Positions count from residue 1 of the parent VH; M34K puts K in place of M. Numbers give log10(Kd / nM), so 0 is 1 nM and 3 is 1 µM. Smaller is tighter. Where no diploid with the target was found in that replicate, the entry reads "nd": below detection, most likely a poor binder, though not proof of it. Three control strains display no target. For library AAYL51, 21% of the pairings with them gave a signal, with a median of 4.54 and one signal in twenty below 3.26, so weak values seen in few replicates may be background. The control count says in how many pairings with the empty strains this scFv gave a signal, with their mean in brackets.

changes	replicates, log10 nM	control signals
M34K+H35A+G59D	nd nd nd	1/9 (5.19)
Y32G+R101L	nd nd nd	1/9 (3.79)
D31F+G59Y+D62H	nd nd nd	0/9
H35K+I51N+G59P	4.48 nd nd	2/9 (4.86)
D31Y+F106W+D107P	nd nd nd	0/9
D31S+H35K+R101G	nd nd nd	0/9
F29N+Y32H+H35A	nd nd nd	3/9 (4.14)
F29S+G103P+G104K	3.90 nd 4.62	5/9 (4.86)
F29Y+N54P+G104A	nd nd 4.03	1/9 (3.07)
D30Q+A33G+K65C	nd nd nd	2/9 (4.11)
F29E+N54Q+S63D	nd 6.08 4.89	0/9
G50Q+V99G+F106D	nd nd nd	0/9
Y32F+M34I+G102Y	nd 4.84 nd	2/9 (5.02)
G50D+W53A+G102Y	6.27 5.46 nd	3/9 (4.69)
G50W+G59V+S63L	4.26 3.94 nd	1/9 (4.07)
S55G+S57N+R101S	nd nd nd	0/9
D31R+N54Q	2.10 2.21 2.01	7/9 (4.66)
F29R+S55H+V99R	5.18 4.55 nd	1/9 (3.99)
D31W+S63C+G102R	4.18 nd 4.54	2/9 (4.05)
I58T+Y60L+G103R	nd nd nd	2/9 (4.12)
F27Y+F29T+Y105E	5.11 nd nd	5/9 (4.27)
G56Y+S57L+I58C	1.63 1.71 1.51	0/9
W53T+G100W	4.98 nd nd	1/9 (3.81)
H35C+R101Y+D107C	3.50 nd nd	3/9 (4.30)
A33S+M34I+Y105P	2.81 3.30 3.40	3/9 (4.34)
I58E+V64R+G104H	nd nd nd	1/9 (4.47)
I58L+S63L+F106A	3.87 nd nd	0/9
G50W+I58R+Y108Q	nd nd 3.81	0/9
D30E+G50P+D62V	4.66 nd nd	1/9 (5.21)
D30F+G100M+G103F	nd 4.47 nd	2/9 (3.61)
G50Y+G100K+G102P	4.78 6.43 nd	3/9 (5.29)
F29C+S57G+Y108F	nd nd nd	0/9
S52H+W53S+V99W	nd nd nd	0/9
F27M+H35K+S57T	nd nd nd	0/9
G50R+I51D+S63R	nd nd nd	0/9
S52E+W53D+A61L	nd nd nd	0/9
D30E+A33V+Y108D	4.44 4.85 nd	1/9 (5.06)
F27M+A33V+V99T	nd nd nd	0/9
S52D+G59W+R101S	nd nd nd	1/9 (1.61)
G26P+M34N+S63G	nd 6.22 5.06	6/9 (4.65)
W53S+R101W+Y108F	nd 4.45 nd	1/9 (2.73)
H35P+S55P+V64G	nd nd nd	0/9

From the list, the first 6 with no signal in any replicate:

changes	replicates, log10 nM	control signals
M34K+H35A+G59D	nd nd nd	1/9 (5.19)
Y32G+R101L	nd nd nd	1/9 (3.79)
D31F+G59Y+D62H	nd nd nd	0/9
D31Y+F106W+D107P	nd nd nd	0/9
D31S+H35K+R101G	nd nd nd	0/9
F29N+Y32H+H35A	nd nd nd	3/9 (4.14)